## AlphaSeq binding of Ab-14 light chain variants to a spike HR2 peptide

Target: peptide PDVDLGDISGINAS, taken from heptad repeat 2 (HR2) of SARS-CoV-2 spike.

The variants keep the heavy chain, the linker and the frameworks of Ab-14 (scFv order VH, the linker GGGGSGGGGSGGGGS, VL).
VH: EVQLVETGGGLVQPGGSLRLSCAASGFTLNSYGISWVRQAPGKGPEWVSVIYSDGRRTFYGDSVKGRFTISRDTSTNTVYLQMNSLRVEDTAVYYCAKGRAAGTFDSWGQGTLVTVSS
VL: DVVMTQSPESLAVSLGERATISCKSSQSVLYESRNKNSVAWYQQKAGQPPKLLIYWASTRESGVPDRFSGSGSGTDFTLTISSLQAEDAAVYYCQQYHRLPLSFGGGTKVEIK

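The starting antibody came from a phage panning campaign against this peptide. These sequences belong to a second round, designed from the earlier measurements on random variants of the parent. Several design methods are mixed in this list. The assay is AlphaSeq: two haploid yeast populations carry antibody and antigen on their surface. Binding brings cells together so that they mate, and sequencing counts the barcode pairs among the diploids. Each replicate has its own calibration line, from reference interactions of the BCL2 family. Each pool was mated in six replicate cultures.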

The parent's light chain CDRs are KSSQSVLYESRNKNSVA, WASTRES, QQYHRLPLS; each variant's own CDRs replace them letter for letter.
Values are log10 of the apparent Kd in nM; lower means stronger binding.
A mean of the replicates is given; it leaves out those without a signal.
An entry "nd" has no value in the source: the pair was not observed among the diploids in any replicate. This suggests poor binding but is not conclusive.
The range of this assay differs from that of the first round, and the authors advise against merging the two.
The authors' rule: three or more of the six replicates give a measured affinity, fewer mean a poor binder.
Of ten entries with the parent sequence, four were seen in most replicates (averages 0.34 to 2.37), three in one and three in none, so single entries are noisy.
Three control strains display no target. For all light chain designs, 4% of the pairings with them gave a signal, with a median of 2.64 and one signal in twenty below 1.59, so weak values seen in few replicates may be background. The control count says in how many pairings with the empty strains this scFv gave a signal.

The variant KLSQSFLYESRNKNSVA | EASTREE | QQYHRLPLS gave -0.39 (6 of 6 replicates; controls 2 of 18).
The variant QLLMATMGETYNRNSVA | HAETRED | QSYHRLPLS gave 1.17 (6 of 6 replicates; controls 0 of 18).
The variant KISMLYNYESVNKNSIA | EMTTREQ | QHYHRLPLS gave nd (0 of 6 replicates; controls 0 of 18).
The variant KFEQGVLYESRNKNSVA | GASVRES | QQYHRLPLS gave 0.18 (6 of 6 replicates; controls 0 of 18).
The variant NSSPSVLYESRNKNSVA | WASTRES | QQYHRLPLI gave 1.72 (2 of 6 replicates; controls 0 of 18).
The variant FSSQSVLYESSFKNSVA | WASTRES | QQYHRMPLS gave nd (0 of 6 replicates; controls 1 of 18).
The variant KIYASTMLESHDKNSIA | DLSTRGN | QQYHRLPLS gave 1.03 (6 of 6 replicates; controls 4 of 18).
The variant KLSQSVLYESRNWNSVA | NASTRCS | QQYHRLPLS gave 0.04 (6 of 6 replicates; controls 1 of 18).
The variant KISQEVLYESRNKNSVA | DASTRES | QQYHRLPLK gave -0.36 (6 of 6 replicates; controls 1 of 18).
The variant KCSQSVLYESRNKNSVA | NASTRES | QQYHRLILS gave nd (0 of 6 replicates; controls 0 of 18).
The variant KLSGATRLESRNKASVA | ENSTRGE | QQYFRLPLS gave 0.57 (6 of 6 replicates; controls 1 of 18).
The variant KISQQVLYESSLKNSVA | MAGTRES | QQYHRLPPS gave nd (0 of 6 replicates; controls 0 of 18).
The variant KLQQSVLMGSRNKNSVA | EASTRRV | QAYHRLPLS gave 1.40 (6 of 6 replicates; controls 0 of 18).
The variant KLWEDFYHGQVETSAIA | DGEHLNM | QQYSHLPLS gave 0.37 (6 of 6 replicates; controls 1 of 18).
The variant MVNGIMDHLSKNTNNVA | ETTTREE | QQYERLPLS gave 1.07 (5 of 6 replicates; controls 0 of 18).
The variant KLSFSVMLESRNKNAVA | SASTRMS | QDYHRLPLS gave 0.65 (6 of 6 replicates; controls 1 of 18).
The variant KLSCSELYEEPNSNSVA | NASTRPM | QQYHRLPLS gave 0.27 (6 of 6 replicates; controls 2 of 18).
The variant TISEHAQQESHNKNSVA | DLNVRGS | QQYDRLPLS gave 0.41 (6 of 6 replicates; controls 2 of 18).
The variant KLSQSELYESRNKNSVA | NASYRES | QQYHRLPLS gave 0.08 (6 of 6 replicates; controls 0 of 18).
The variant KSSISYLYESENKNSVA | AASTRES | QQYHRLPLS gave 1.04 (6 of 6 replicates; controls 0 of 18).
The variant KLSQSVLYESRNKNSVA | EASTRTS | QQYHRLPLS gave -0.31 (6 of 6 replicates; controls 2 of 18).
The variant IVSQSVMGESRNLNSVA | QTSERNY | QQYDRLPLS gave 0.45 (6 of 6 replicates; controls 1 of 18).
The variant KMSQSVDYEDRNCNAVA | AASQREE | QQYHRLPLS gave 0.06 (6 of 6 replicates; controls 0 of 18).
The variant KLSQSMLYESRMKNSVA | NASTRMS | QQYHRLPLS gave -0.20 (6 of 6 replicates; controls 0 of 18).
The variant MISQLTNMGTFAINSVA | QASVRNE | QQYDRLPLQ gave 0.92 (6 of 6 replicates; controls 1 of 18).
The variant KSSQSVFYDSSNMNSVA | WASTRED | QQYHRLPLS gave 1.37 (6 of 6 replicates; controls 1 of 18).
The variant KFSQSVLYESRNKNNVA | GASTRES | QQYHRLPLS gave -0.41 (6 of 6 replicates; controls 0 of 18).
The variant KIGQQVTYESTKKNAIA | QMTTREE | QQYHRLPLS gave 0.70 (6 of 6 replicates; controls 0 of 18).
The variant KISMLYNYESTNKNSIA | EMTTREE | QHYHRLPLS gave 1.77 (2 of 6 replicates; controls 0 of 18).
The variant KSSMGYLYESRNKNSVA | GASTRES | QQYHRLPLS gave 0.24 (6 of 6 replicates; controls 1 of 18).
The variant KFSQGGPYEQRNKNSVA | NASQRES | QQYHRLPLS gave -0.10 (6 of 6 replicates; controls 5 of 18).
The variant KLSQSTLYDSGNKNSVA | WASTRES | QQYKRLPLS gave 0.42 (6 of 6 replicates; controls 0 of 18).
The variant KFEQSWWYESRVKNNVA | NASQRES | QQYHRLPLS gave 0.64 (6 of 6 replicates; controls 3 of 18).
The variant LLPQSMEYESRNKNSVA | SASTRES | QQYHRLPLS gave -0.20 (6 of 6 replicates; controls 0 of 18).
The variant KLSQSVLYESRNKNSVA | EASTREE | QQYHRLPLS gave -0.30 (6 of 6 replicates; controls 1 of 18).
The variant IVSQLMLWGLHAKNSIA | EAEMRTN | QQYERLPLF gave -0.41 (6 of 6 replicates; controls 0 of 18).
The variant KVSEFMRGLMSRKDSIA | DNNTRGS | QQYDRLPLS gave 2.61 (5 of 6 replicates; controls 0 of 18).
The variant KLQGSKEYLSRWKNSVA | HASVREV | QQYHRLPLS gave 1.60 (6 of 6 replicates; controls 1 of 18).
The variant KLSQSELYESRQFNSVA | HASQRNL | QQYHRLPLS gave 0.34 (6 of 6 replicates; controls 1 of 18).
The variant KLSQSMPYEERNKNSVA | NASQRMS | QQYHRLPLS gave 0.10 (6 of 6 replicates; controls 0 of 18).
The variant MISQLYNMGQFAINSVA | QASERCN | QQYDRLPLT gave 2.21 (6 of 6 replicates; controls 2 of 18).
The variant TLYGLSMSMSKNKNNVA | EMTTRED | QQYDRLPLV gave 0.47 (1 of 6 replicates; controls 0 of 18).
The variant KVSQSVLYEDRNKNSVA | NASQRES | QQYHRLPLS gave 0.44 (6 of 6 replicates; controls 0 of 18).
The variant KMSQSNDYEDRNSNAVA | EASTREM | QQYHRLPLS gave 1.72 (6 of 6 replicates; controls 1 of 18).
The variant KSSISYLYESENKNSVA | HASQRES | QQYHRLPLS gave 0.12 (6 of 6 replicates; controls 2 of 18).
The variant TISQSAQQESHKKNSVA | DLSVRGS | QQYDRLPLS gave 1.36 (6 of 6 replicates; controls 0 of 18).
The variant KLSQSELYEQRNKNSVA | NASTRES | QQYHRLPLS gave -0.07 (6 of 6 replicates; controls 0 of 18).

The first 4 variants above that were never detected:

For KISMLYNYESVNKNSIA | EMTTREQ | QHYHRLPLS, the assay gave nd (0 of 6 replicates; controls 0 of 18).
For FSSQSVLYESSFKNSVA | WASTRES | QQYHRMPLS, the assay gave nd (0 of 6 replicates; controls 1 of 18).
For KCSQSVLYESRNKNSVA | NASTRES | QQYHRLILS, the assay gave nd (0 of 6 replicates; controls 0 of 18).
For KISQQVLYESSLKNSVA | MAGTRES | QQYHRLPPS, the assay gave nd (0 of 6 replicates; controls 0 of 18).

Reference: Li et al. 2023, doi:10.1038/s41467-023-39022-2. File: FLAb, binding data.